In patent US20250288536A1, “PROTEIN PARTICLES INCLUDING AN ACTIVE AGENT AND METHODS OF MAKING AND USING THE SAME” (Dairy Mangement Inc., priority 2022, published 2025):

Experiment: Particle size by DLS before and after ultrasonication (Example 2)
Settings: before ultrasonication

α-lactalbumin
mean size (pH 11): 6.5±0.1 nm | mean size (pH adjusted from 11 to 7): 15.5±3.6 nm
